From ChEMBL document CHEMBL5257068, “Synthesis and biological evaluation of DIDS analogues as efficient inhibitors of RAD51 involved in homologous recombination” (Bioorg Med Chem Lett, 2023) come the findings set out here.

The target of the assay is T1, DNA repair protein RAD51 homolog 1 (Homo sapiens) (UniProt Q06609).
T1 sequence (whole entry): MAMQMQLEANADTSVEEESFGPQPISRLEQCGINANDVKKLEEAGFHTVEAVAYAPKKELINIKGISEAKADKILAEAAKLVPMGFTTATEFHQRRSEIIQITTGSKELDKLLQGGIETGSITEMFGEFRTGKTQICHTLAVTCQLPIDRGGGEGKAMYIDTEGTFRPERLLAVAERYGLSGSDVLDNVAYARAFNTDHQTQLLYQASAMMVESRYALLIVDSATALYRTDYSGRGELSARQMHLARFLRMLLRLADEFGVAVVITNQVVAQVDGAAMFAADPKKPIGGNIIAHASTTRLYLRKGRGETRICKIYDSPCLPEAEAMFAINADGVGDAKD
Put plainly: Inhibition of His-6 tagged human RAD51 mediated strand exchange at 1 to 2 uM relative to control. Conditions: dose 1-2 µM.

SMILES strings stand for the structures.

A word on the inhibition: it is the relative decrease from the control value, in per cent. A lower inhibition goes with little suppression.

In turn, `O=S(=O)(O)c1cc(N=C=S)ccc1/C=C/c1ccc(N=C=S)cc1S(=O)(=O)O` showed an inhibition of 50%.
